Molecular target: Geranylgeranyl transferase type-2 (Homo sapiens) (UniProt P53611+Q92696)
Test: Inhibition of GGTase-2 in human RPMI8226 cells assessed as ratio of calnexin to Rab6 level at 10 uM after 48 hrs by immunoblot analysis relative to control
Format: cell-based

Protein sequences, listed by entry. Tags and fused reporters are not part of them. Lines headed by an entry give the natural chain unless they say otherwise; changes in a name come on top.
UniProt P53611: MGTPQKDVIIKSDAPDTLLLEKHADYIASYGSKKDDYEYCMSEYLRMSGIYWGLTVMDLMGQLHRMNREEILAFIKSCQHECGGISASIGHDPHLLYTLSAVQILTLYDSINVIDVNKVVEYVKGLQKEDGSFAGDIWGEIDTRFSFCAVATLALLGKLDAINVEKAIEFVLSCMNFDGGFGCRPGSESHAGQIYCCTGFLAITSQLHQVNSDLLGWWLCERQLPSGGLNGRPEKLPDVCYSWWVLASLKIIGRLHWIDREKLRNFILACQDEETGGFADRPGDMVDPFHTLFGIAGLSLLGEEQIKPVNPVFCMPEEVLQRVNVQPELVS
UniProt Q92696: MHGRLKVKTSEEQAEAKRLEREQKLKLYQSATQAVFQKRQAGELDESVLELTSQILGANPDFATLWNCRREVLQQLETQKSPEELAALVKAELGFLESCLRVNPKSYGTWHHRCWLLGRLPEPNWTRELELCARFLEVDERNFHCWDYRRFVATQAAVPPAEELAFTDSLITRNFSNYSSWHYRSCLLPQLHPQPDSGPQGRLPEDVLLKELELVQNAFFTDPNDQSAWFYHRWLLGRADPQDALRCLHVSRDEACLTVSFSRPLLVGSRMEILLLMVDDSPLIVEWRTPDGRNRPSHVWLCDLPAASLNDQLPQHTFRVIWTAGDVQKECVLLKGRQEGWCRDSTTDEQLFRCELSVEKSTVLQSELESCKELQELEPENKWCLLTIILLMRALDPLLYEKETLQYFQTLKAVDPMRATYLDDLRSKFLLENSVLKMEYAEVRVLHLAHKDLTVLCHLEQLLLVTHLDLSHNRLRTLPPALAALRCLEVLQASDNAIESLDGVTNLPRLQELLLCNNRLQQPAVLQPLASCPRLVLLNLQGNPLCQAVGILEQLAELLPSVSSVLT

## CC[C@H](C)C(=O)O[C@H]1C[C@@H](C)C=C2C=C[C@H](C)[C@H](CC[C@@H]3C[C@@H](O)CC(=O)O3)[C@H]21
  fold change (FC): 0.4

Source: ChEMBL document CHEMBL4312018, “Novel benzimidazole phosphonates as potential inhibitors of protein prenylation” (Bioorg Med Chem Lett, 2019)
